Measurements taken from patent US8778881B2 (priority 2004, dated 2014).

By UniProt entry, the sequences of proteins in these tests, tags left out.
UniProt P37288, whole entry: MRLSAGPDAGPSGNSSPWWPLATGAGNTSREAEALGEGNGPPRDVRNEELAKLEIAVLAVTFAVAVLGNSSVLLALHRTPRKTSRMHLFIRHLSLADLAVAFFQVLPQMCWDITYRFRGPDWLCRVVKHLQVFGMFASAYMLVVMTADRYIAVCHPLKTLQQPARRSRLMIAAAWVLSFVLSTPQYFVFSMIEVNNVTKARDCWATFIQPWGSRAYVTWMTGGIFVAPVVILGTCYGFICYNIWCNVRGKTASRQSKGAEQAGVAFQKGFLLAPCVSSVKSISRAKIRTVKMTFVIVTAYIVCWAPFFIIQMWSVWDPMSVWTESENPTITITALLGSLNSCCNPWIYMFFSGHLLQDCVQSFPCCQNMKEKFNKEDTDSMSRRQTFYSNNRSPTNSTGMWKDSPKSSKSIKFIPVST

Experiments:
hV1a receptor = target: T1, hV1a receptor (Homo sapiens, UniProt P37288); assay: hV1a receptor transcriptional reporter (luciferase) agonist assay in HEK-293 cells; assay type: cell-based; conditions: geometric mean; HEK-293 cells transiently transfected, 5 hours exposure, at least three independent experiments
T1 construct: expressed in transfected cells; host or cells: HEK-293 cells (transient transfection)
Experimental: (§1) Agonist activity of compounds on the hV1a receptor was determined in a transcriptional reporter assay by transiently transfecting a hV1a receptor expression DNA into HEK-293 cells in concert with a reporter DNA containing intracellular calcium responsive promoter elements regulating expression of firefly luciferase. See Boss, V., Talpade, D. J., Murphy, T. J. J. Biol. Chem. 1996, May 3; 271(18), 10429-10432 for further guidance on this assay. […] To determine selectivity, compounds were tested in luciferase-based transcriptional reporter assays expressing the human oxytocin (hOT) receptor. Assays for other receptors (hV2, hV1b, rat V1a and rat V2) were also conducted.
(§2) The EC50 value given is the geometric mean expressed in nanomol/L (nM). Selectivity values are given as EC50 ratios.

[1] = target: T2, human oxytocin (hOT) receptor (Homo sapiens, UniProt P30559); assay: luciferase-based transcriptional reporter assay expressing the human oxytocin (hOT) receptor, for selectivity; assay type: cell-based; conditions: agonist efficacy at the hOT receptor compared to AVP; ratio not determined
T2 construct: expressed in transfected cells
T2 sequence (P30559 1-389): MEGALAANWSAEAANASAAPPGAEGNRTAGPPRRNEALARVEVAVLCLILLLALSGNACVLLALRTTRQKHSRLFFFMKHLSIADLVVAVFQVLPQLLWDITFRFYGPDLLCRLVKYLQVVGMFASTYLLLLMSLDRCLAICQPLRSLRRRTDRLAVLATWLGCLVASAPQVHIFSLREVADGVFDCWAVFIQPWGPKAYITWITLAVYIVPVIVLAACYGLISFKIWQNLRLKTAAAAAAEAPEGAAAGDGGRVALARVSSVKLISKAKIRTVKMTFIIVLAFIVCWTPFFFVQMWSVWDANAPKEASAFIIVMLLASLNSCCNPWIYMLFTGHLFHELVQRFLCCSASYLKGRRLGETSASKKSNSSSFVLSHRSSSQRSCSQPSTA
Experimental: as §1, §2

[2] = test system: anaesthetised Sprague-Dawley male rats; assay: in vivo duration of action, blood pressure test in anaesthetised rats; parameters: species or system rat; conditions: ratio of decay rate of diastolic blood pressure response to standard AVP dose (0.1 nmol/kg i.v.) to decay rate for equieffective dose of compound; dibenamine-pretreated rats

In the case of `CC[C@H](N)C(=O)NCC[C@H](NC(=O)[C@@H]1CCCN1C(=O)[C@@H]1CSSC[C@H](O)C(=O)N[C@@H](Cc2ccccc2)C(=O)N[C@@H]([C@@H](C)CC)C(=O)N[C@@H](CCCC(N)=O)C(=O)N[C@@H](CC(N)=O)C(=O)N1)C(=O)NCC(N)=O` [Compound F180, reference compound], the pEC50 (hV1a receptor) was 9.25, the “selectivity hOT/hV1a (class symbol)” value [1] was “+ (selective hV1a receptor agonist; EC50 hOT/hV1a ratio not determined due to very low agonist efficacy (<30% compared to AVP) at the hOT receptor)” and the “in vivo duration relative to AVP” value [2] was 3.8.

pEC50: −log10 of the molar value.
